Measured values taken from US6936585B2, “Corticotropin releasing factor 2 receptor agonists” (priority 2002, dated 2005).

Columns and labels:
CRF2R = target: T1, CRF2R (Homo sapiens, UniProt Q13324); experiment: CRF2R agonist activation (EC50 / Emax), called comparative CRF binding; type: cell-based; conditions: for Emax: read-out: CRF2R Emax
T1 sequence (Q13324 1-411): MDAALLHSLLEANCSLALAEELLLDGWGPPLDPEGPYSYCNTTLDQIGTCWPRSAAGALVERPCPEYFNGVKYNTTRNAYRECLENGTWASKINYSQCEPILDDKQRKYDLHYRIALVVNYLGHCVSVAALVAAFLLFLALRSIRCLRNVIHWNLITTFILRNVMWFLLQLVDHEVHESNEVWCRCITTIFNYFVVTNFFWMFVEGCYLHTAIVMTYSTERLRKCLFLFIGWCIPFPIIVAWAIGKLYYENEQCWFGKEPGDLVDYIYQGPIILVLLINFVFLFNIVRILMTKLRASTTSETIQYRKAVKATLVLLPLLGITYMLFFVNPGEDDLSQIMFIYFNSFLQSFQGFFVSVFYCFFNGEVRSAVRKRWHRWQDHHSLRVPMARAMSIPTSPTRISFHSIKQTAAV
Outline: (§1)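 Agonism at each human CRF receptor subtype is inferred from increased cAMP relative to vehicle, using cells expressing that subtype and either lysate cAMP measurement or a cAMP response element reporter.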

CRF1R = target: T2, CRF1R (Homo sapiens, UniProt P34998); experiment: CRF1R agonist activation (EC50 / Emax), called comparative CRF binding; type: cell-based; conditions: for Emax: read-out: CRF1R Emax
T2 sequence (P34998 24-415): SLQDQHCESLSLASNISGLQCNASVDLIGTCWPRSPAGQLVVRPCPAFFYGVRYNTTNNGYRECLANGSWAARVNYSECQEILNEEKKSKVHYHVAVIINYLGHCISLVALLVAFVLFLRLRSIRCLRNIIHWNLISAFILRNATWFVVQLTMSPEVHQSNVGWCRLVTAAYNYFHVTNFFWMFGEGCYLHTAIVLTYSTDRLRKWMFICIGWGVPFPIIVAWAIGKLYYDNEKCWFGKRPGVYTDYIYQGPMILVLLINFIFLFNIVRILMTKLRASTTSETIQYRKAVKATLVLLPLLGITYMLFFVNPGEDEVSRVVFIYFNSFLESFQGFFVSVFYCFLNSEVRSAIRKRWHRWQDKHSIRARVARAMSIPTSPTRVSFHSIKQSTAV
Outline: as §1

CC[C@H](C)[C@H](NC(=O)[C@@H](NC(=O)[C@H](CC(=O)O)NC(=O)[C@H](CC(C)C)NC(=O)[C@H](CC(C)C)NC(=O)[C@H](CC(C)C)NC(=O)[C@H](CCCNC(=N)N)NC(=O)[C@H](CC(N)=O)NC(=O)[C@H](CC(N)=O)NC(=O)[C@H](C)NC(=O)[C@H](C)NC(=O)[C@H](CCC(N)=O)NC(=O)[C@H](CCC(N)=O)NC(=O)[C@H](CCCCN)NC(=O)[C@H](CCC(=O)O)NC(=O)[C@H](CCCCN)NC(=O)[C@H](CCC(=O)O)NC(=O)[C@H](CCC(N)=O)NC(=O)[C@H](CCCCN)NC(=O)[C@H](CCC(=O)O)NC(=O)[C@@H](NC(=O)[C@H](CCC(=O)O)NC(=O)[C@@H](NC(=O)[C@H](CCSC)NC(=O)[C@H](CCCCN)NC(=O)[C@H](CCCNC(=N)N)NC(=O)[C@H](CC(C)C)NC(=O)[C@H](CC(C)C)NC(=O)[C@@H](NC(=O)[C@H](Cc1ccccc1)NC(=O)[C@@H]1CCCN1C(=O)[C@H](CC(C)C)NC(=O)[C@H](CC(=O)O)NC(=O)[C@@H](NC(=O)[C@H](CO)NC(=O)[C@@H](NC(=O)[C@@H]1CCCN1C(=O)[C@@H]1CCCN1C(=O)CNC(=O)[C@@H]1CCC(=O)N1)[C@@H](C)CC)[C@@H](C)CC)[C@@H](C)CC)[C@@H](C)CC)[C@@H](C)CC)[C@@H](C)O)C(N)=O [compound 189]
Emax (CRF2R): 96%
Emax (CRF1R): 57%

CC[C@H](C)[C@H](NC(=O)[C@@H](NC(=O)[C@H](CC(=O)O)NC(=O)[C@H](CC(C)C)NC(=O)[C@H](CC(C)C)NC(=O)[C@H](CCCNC(=N)N)NC(=O)[C@H](C)NC(=O)[C@H](CC(N)=O)NC(=O)[C@H](CC(N)=O)NC(=O)[C@H](C)NC(=O)[C@H](C)NC(=O)[C@H](CCC(N)=O)NC(=O)[C@H](CCC(N)=O)NC(=O)[C@H](CCCCN)NC(=O)[C@H](CCC(=O)O)NC(=O)[C@H](CCCCN)NC(=O)[C@H](CCC(=O)O)NC(=O)[C@H](CCC(N)=O)NC(=O)[C@H](CCCCN)NC(=O)[C@H](CCC(=O)O)NC(=O)[C@@H](NC(=O)[C@H](CCC(=O)O)NC(=O)[C@@H](NC(=O)[C@@H](NC(=O)[C@H](CCCCN)NC(=O)[C@H](CCCNC(=N)N)NC(=O)[C@H](CC(C)C)NC(=O)[C@H](CC(C)C)NC(=O)[C@H](CCC(N)=O)NC(=O)[C@H](CC(C)C)NC(=O)[C@@H]1CCCN1C(=O)[C@@H](NC(=O)[C@H](CC(=O)O)NC(=O)[C@@H](NC(=O)[C@H](CO)NC(=O)[C@@H](NC(=O)[C@@H]1CCCN1C(=O)[C@@H]1CCCN1C(=O)CNC(=O)[C@@H]1CCC(=O)N1)[C@@H](C)CC)[C@@H](C)CC)C(C)C)C(C)C)[C@@H](C)CC)[C@@H](C)CC)[C@@H](C)O)C(N)=O [compound 380]
EC50 (CRF2R): 19 nM
Emax (CRF2R): 100%
EC50 (CRF1R; CRF1R EC50): ≥ 1000 nM
Emax (CRF1R): 16%

CC[C@H](C)[C@H](NC(=O)[C@@H](NC(=O)[C@H](CC(=O)O)NC(=O)[C@H](CC(C)C)NC(=O)[C@H](CC(C)C)NC(=O)[C@H](CC(C)C)NC(=O)[C@H](CCCNC(=N)N)NC(=O)[C@H](CC(N)=O)NC(=O)[C@H](CC(N)=O)NC(=O)[C@H](C)NC(=O)[C@H](C)NC(=O)[C@H](CCC(N)=O)NC(=O)[C@H](CCC(N)=O)NC(=O)[C@H](CCCCN)NC(=O)[C@H](CCC(=O)O)NC(=O)[C@H](CCCCN)NC(=O)[C@H](CCC(=O)O)NC(=O)[C@H](CCC(N)=O)NC(=O)[C@H](CCCCN)NC(=O)[C@H](CCC(=O)O)NC(=O)[C@@H](NC(=O)[C@H](CCC(=O)O)NC(=O)[C@@H](NC(=O)[C@H](CCSC)NC(=O)[C@H](CCCCN)NC(=O)[C@H](CCCNC(=N)N)NC(=O)[C@H](CC(C)C)NC(=O)[C@H](CC(C)C)NC(=O)[C@H](Cc1ccccc1)NC(=O)[C@H](CCC(N)=O)NC(=O)[C@@H]1CCCN1C(=O)[C@H](CC(C)C)NC(=O)[C@H](CC(=O)O)NC(=O)[C@@H](NC(=O)[C@H](CO)NC(=O)[C@@H](NC(=O)[C@@H]1CCCN1C(=O)[C@@H]1CCCN1C(=O)CNC(=O)[C@@H]1CCC(=O)N1)[C@@H](C)CC)[C@@H](C)CC)[C@@H](C)CC)[C@@H](C)CC)[C@@H](C)O)C(N)=O [compound 221]
Emax (CRF2R): 100%
Emax (CRF1R): 100%

CC[C@H](C)[C@H](NC(=O)[C@@H](NC(=O)[C@H](CC(=O)O)NC(=O)[C@H](CC(C)C)NC(=O)[C@H](CC(C)C)NC(=O)[C@H](CC(C)C)NC(=O)[C@H](CCCNC(=N)N)NC(=O)[C@H](CC(N)=O)NC(=O)[C@H](CC(N)=O)NC(=O)[C@H](C)NC(=O)[C@H](C)NC(=O)[C@H](CCC(N)=O)NC(=O)[C@H](CCC(N)=O)NC(=O)[C@H](CCCCN)NC(=O)[C@H](CCC(=O)O)NC(=O)[C@H](CCCCN)NC(=O)[C@H](CCC(=O)O)NC(=O)[C@H](CCC(N)=O)NC(=O)[C@H](CCCCN)NC(=O)[C@H](CCC(=O)O)NC(=O)[C@@H](NC(=O)[C@H](CCC(=O)O)NC(=O)[C@@H](NC(=O)[C@H](CCSC)NC(=O)[C@H](CCCCN)NC(=O)[C@H](CCCNC(=N)N)NC(=O)[C@H](CC(C)C)NC(=O)[C@H](CC(C)C)NC(=O)[C@H](Cc1ccc(O)cc1)NC(=O)[C@H](Cc1ccccc1)NC(=O)[C@@H]1CCCN1C(=O)[C@H](CC(C)C)NC(=O)[C@H](CC(=O)O)NC(=O)[C@@H](NC(=O)[C@H](CO)NC(=O)[C@@H](NC(=O)[C@@H]1CCCN1C(=O)[C@@H]1CCCN1C(=O)CNC(=O)[C@@H]1CCC(=O)N1)[C@@H](C)CC)[C@@H](C)CC)[C@@H](C)CC)[C@@H](C)CC)[C@@H](C)O)C(N)=O [compound 85]
Emax (CRF2R): 100%
Emax (CRF1R): 84%

CC[C@H](C)[C@H](NC(=O)[C@H](CCC(=O)O)NC(=O)[C@@H](NC(=O)[C@H](CCSC)NC(=O)[C@H](CCCCN)NC(=O)[C@H](CCCNC(=N)N)NC(=O)[C@H](CC(C)C)NC(=O)[C@H](CC(C)C)NC(=O)[C@H](Cc1c[nH]cn1)NC(=O)[C@H](Cc1ccc(O)cc1)NC(=O)[C@@H]1CCCN1C(=O)[C@H](CC(C)C)NC(=O)[C@H](CC(=O)O)NC(=O)[C@@H](NC(=O)[C@H](CO)NC(=O)[C@@H](NC(=O)[C@@H]1CCCN1C(=O)[C@@H]1CCCN1C(=O)CNC(=O)[C@@H]1CCC(=O)N1)[C@@H](C)CC)[C@@H](C)CC)[C@@H](C)CC)C(=O)N[C@@H](CCC(=O)O)C(=O)N[C@@H](CCCCN)C(=O)N[C@@H](CCC(N)=O)C(=O)N[C@@H](CCC(=O)O)C(=O)N[C@@H](CCCCN)C(=O)N[C@@H](CCC(=O)O)C(=O)N[C@@H](CCCCN)C(=O)N[C@@H](CCC(N)=O)C(=O)N[C@@H](CCC(N)=O)C(=O)N[C@@H](C)C(=O)N[C@@H](C)C(=O)N[C@@H](CC(N)=O)C(=O)N[C@@H](CC(N)=O)C(=O)N[C@@H](C)C(=O)N[C@@H](CC(C)C)C(=O)N[C@@H](CC(C)C)C(=O)N[C@@H](CC(C)C)C(=O)N[C@@H](C)C(=O)N[C@H](C(N)=O)[C@@H](C)O [compound 315]
Emax (CRF2R): 81.7%
Emax (CRF1R): 100%
